System: human iPSC-derived 3D BrainSpheres
Assay: BrainSphere MEA assay (HD-MEA, 13-day exposure, concentration-response); as to hitc Mean.Spheroid.Burst.Duration: key: 1 (active); 0 (inactive); as to hitc Mean.Spheroid.Burst.ISI: key: 1 (active); 0 (inactive); as to hitc Mean.Spheroid.Burst.Peak.Firing.Rate: key: 1 (active); 0 (inactive); as to hitc Mean.Spheroid.Firing.Rate: key: 1 (active); 0 (inactive); as to hitc Mean.Spheroid.IBI: key: 1 (active); 0 (inactive); as to hitc Mean.Spheroid.Nonburst.ISI: key: 1 (active); 0 (inactive); as to hitc Mean.Spheroid.Spikes.per.Burst.per.Electrode: key: 1 (active); 0 (inactive); as to hitc Mean.Spheroid.Spikes.per.Burst: key: 1 (active); 0 (inactive); as to hitc Spheroid.Burst.Frequency: key: 1 (active); 0 (inactive); as to hitc Spheroid.Spike.Amplitude.90th.Percentile: key: 1 (active); 0 (inactive)
Format: cell-based
Protocol: A volume of 1 ml of Tergazyme (1% solution in deionized water) was added to each well of the MaxTwo 6-Well Plate (MaxWell Biosystems) and incubated overnight under constant gyratory shaking (88 RPM) at 37 °C and 5% CO2. The next day, Tergazyme solution was removed, and plates were washed with distilled water and ethanol. After remaining ethanol was evaporated, wells were washed with PBS. Then, 200 µl of Poly-D-Lysine (Gibco, A38904 - 01) was added on top of the electrodes and incubated at 37 °C and 5% CO2 for 3 h (humidified). Poly-D-Lysine was then removed, and wells were coated with 100 µl of 0.1 mg/ml laminin coating solution (Sigma-Aldrich, L2020 - 1 mg) and incubated for 2 h at 37 ℃ and 5% CO2 (humidified). The laminin was removed after incubation. Using a 1 ml micropipette, 1 ml of medium containing BrainSpheres (7 weeks differentiated), approximately 25 BrainSpheres per ml, was plated on top of the HD-MEA chip (Fig. 1A). Afterwards, the plate was placed in an incubator at 37 °C and 5% CO2 and moved in circles to accumulate the BrainSpheres on top of the electrode area (Fig. 1A). The plate was kept in an incubator (humidified) for 2 days to allow attachment of the BrainSpheres with no gyratory shaking of the plates.
The MaxTwo high-density microelectrode array system (MaxWell Biosystems AG, Zurich, Switzerland) was used to measure neural activity with MaxTwo 6-well plates, where every well includes an integrated chip with 26,400 platinum electrodes arranged in an area of 3.85 × 2.10 mm^2 ([…]) (Muller et al. [2015]). The data were recorded and analyzed with the MaxLab Live Software (version 22.2.22). First, the MaxLab live ActivityScan Assay was used to identify the activity and positioning of the BrainSpheres on the array by scanning all the 26,400 electrodes in 29 configurations in a well (Assay Parameters: Configuration = Full; Recording time per configuration = 60 s (s)). The settings gain = 512, high-pass-filter (HPF): ~ 1 Hz and spike threshold = 5 X root-mean square (RMS) noise were used for all HD-MEA recordings. Circular regions of interest (ROI) were manually selected in the Activity Map where neuronal activity was apparent by an increased activity (Fig. 2). Over the course of the 13-day experiment, the same selected regions and electrodes were measured using the MaxLab Live Network Assay (600 s recording time).
A custom analysis framework was used to extract the MaxLab Live neuronal metrics for the individual BrainSpheres. For this, electrodes comprising a single ROI (i.e., individual BrainSphere; Fig. 2D) were grouped using distance-based clustering (fcluster method of Scipy library, Python 3.7) and neural metrics were calculated for the clustered electrodes for every ROI separately. Figure 2E presents a raster plot illustrating the activity associated with individual Regions of Interest (ROIs). […] Ten MaxLab Live neural metrics (endpoints) were evaluated from the MaxLab live ActivityScan and Network Assay in this study. See Table 3 for the endpoint definitions, tuned parameters, and activity type (general versus network connectivity).
The BrainSphere MEA assay measured changes in neural activity during a 13-day chemical exposure. The first recording day of the concentration–response screening protocol (day of exposure (DOE) 0) occurred after 7 weeks of BrainSphere differentiation, 48 h after plating on HD-MEA plates (Fig. 1B). The study included at least three biological replicates (one well per plate) from separate experiments (e.g., three different plates on three different days) and each well included multiple BrainSpheres which were considered technical replicates.

[1] = AUC over 13-day exposure, tcplfit2
[2] = tcplfit2 BMD at benchmark response (1.349*SD of baseline controls)
[3] = tcplfit2 output ACC, activity cutoff in Supplemental Table 1

In the case of CCCC(CCC)C(=O)O [Sodium valproate], the “hitc Mean.Spheroid.Burst.Duration” value [1] was 0, the “hitc Mean.Spheroid.Burst.ISI” value [1] was 0 and the “hitc Mean.Spheroid.Burst.Peak.Firing.Rate” value [1] was 0. For the same molecule, the “hitc Mean.Spheroid.Firing.Rate” value [1] was 0, the “hitc Mean.Spheroid.IBI” value [1] was 0 and the “hitc Mean.Spheroid.Nonburst.ISI” value [1] was 0. For the same molecule, the “hitc Mean.Spheroid.Spikes.per.Burst” value [1] was 0, the “hitc Mean.Spheroid.Spikes.per.Burst.per.Electrode” value [1] was 0 and the “hitc Spheroid.Burst.Frequency” value [1] was 0. For the same molecule, the “hitc Spheroid.Spike.Amplitude.90th.Percentile” value [1] was 0, the Percent active (metrics active out of the total number of metrics screened) was 0% and the “BMD Mean.Spheroid.Burst.Duration” value [2] was 91 µM. For the same molecule, the “BMD Mean.Spheroid.Burst.Peak.Firing.Rate” value [2] was 85 µM, the “BMD Mean.Spheroid.Firing.Rate” value [2] was 1.4 µM and the “BMD Mean.Spheroid.IBI” value [2] was 79 µM. For the same molecule, the “BMD Mean.Spheroid.Spikes.per.Burst” value [2] was 124 µM, the “BMD Mean.Spheroid.Spikes.per.Burst.per.Electrode” value [2] was 90 µM and the “BMD Spheroid.Burst.Frequency” value [2] was 88 µM. The “BMD Spheroid.Spike.Amplitude.90th.Percentile” value [2] was 84 µM, the “ACC Mean.Spheroid.Burst.Duration” value [3] was 82 µM and the “ACC Mean.Spheroid.Burst.ISI” value [3] was 82 µM. For the same molecule, the “ACC Mean.Spheroid.Burst.Peak.Firing.Rate” value [3] was 79 µM, the “ACC Mean.Spheroid.Firing.Rate” value [3] was 1.9 µM and the “ACC Spheroid.Burst.Frequency” value [3] was 87 µM. For the same molecule, the Hits (total number of active endpoints out of 10 MEA activity metrics, 13-day exposure) was 0.

From article PMC12198282, “Application of a high-density microelectrode array assay using a 3D human iPSC-derived brain microphysiological system model for in vitro neurotoxicity screening of environmental compounds” (Archives of Toxicology, 2025)
